Assay results reported in patent US20030170847A1, “Genes involved in isoprenoid compound production” (priority 2001, published 2003).

System: lycopene cyclase in Rhodococcus ATCC 47072
Settings: for Major peak 15.3 min (443, 469, 500 nm; lycopene), share of carotenoids by HPLC / Minor peak 14.5 min (465 nm; wild type major carotenoid), share of carotenoids by HPLC / wild type major carotenoid, % of total carotenoids / inhibition of lycopene cyclase (estimated): 40 μM inhibitor; for Major peak 15.3 min (443, 469, 500 nm; lycopene), share of carotenoids by HPLC / Minor peak 14.5 min (465 nm; wild type major carotenoid), share of carotenoids by HPLC: ATCC 47072; for wild type major carotenoid, % of total carotenoids: ATCC 47072 cultured 24 hr; for inhibition of lycopene cyclase (estimated): ATCC 47072 cultured 24 hr at 30° C.; for carotenoid production: 40 μM, ATCC 47072 strain

SMILES | Major peak 15.3 min (443, 469, 500 nm; lycopene), share of carotenoids by HPLC | Minor peak 14.5 min (465 nm; wild type major carotenoid), share of carotenoids by HPLC | wild type major carotenoid, % of total carotenoids | inhibition of lycopene cyclase (estimated) | carotenoid production
CCN(CC)CCSc1ccc(Cl)cc1.Cl [CPTA, 2-(4-chlorophenylthio)-triethylamine hydrochloride] | 95% | 5% | 5% | 95% | significantly decreased
CCN(CC)CCOc1ccc(C)cc1.Cl [MPTA, 2-(4-methylphenoxy)-triethylamine hydrochloride] | 82% | 18% | 18% | 82% | significantly decreased
